{"source": "patent US5422118A", "about": "“Transdermal administration of amines with minimal irritation and high transdermal flux rate” (priority 1992, dated 1995)", "origin": "cited, not measured here", "conditions": "human, in vivo; cited from earlier work"}
{"molecule": "CN(C)CC[C@@H](c1ccc(Br)cc1)c1ccccn1", "note": "[dexbrompheniramine]", "values": [{"measurement": "Clearance", "value": 308, "unit": "mL/min"}]}
